Experimental data published in PubChem BioAssay AID903 (National Center for Advancing Translational Sciences (NCATS), 2007).
The list shows a part of the results, in another mix than the full data. Records with an inconclusive call do not appear. Calls of active or inactive are those of the source. The call rests on the fitted dose curve; in most records, active means well fitted cell-killing curve with a large enough effect; inconclusive means small, poorly fitted or top-dose-only effect; inactive means no such curve, though single readings can be large or run the other way.

Assay: qHTS Screen for Compounds that Selectively Target Cancer Cells with p53 Mutations: Cytotoxicity of p53 Null Cells at the Permissive Temperature;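 further: 0% = DMSO only and -100% = full killing by 100 µM tamoxifen; nearly all actives have a fitted effect of over 55% in size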
Conditions: H1299-neo p53 null cells, ATP luminescence, 24 h, 32C; at 46.1 µM (top of the series)
Description: NIH Chemical Genomics Center [NCGC] NIH Molecular Libraries Screening Centers Network [MLSCN] MLSCN Grant: 1 X01 MH079844-01 Assay Submitter (PI): Dr. SUN, YI, University of Michigan NCGC Assay Overview: Synthetic Lethal Screen for Compounds to Kill Cancer Cells with p53 Mutation. Tumor suppressor gene p53 serves as a major cellular barrier against tumorigenesis. […] The goal of this screening is to identify small molecule probes that selectively kill cancer cells with mutations in p53. This screening was carried out using two lines of H1299 lung cancer cells. The H1299-p53 A138V line express a temperature sensitive p53 mutant (p53ts) in which the mutant p53 protein (A138V) is in the mutant confirmation when grown at 39C (the nonpermissive temperature) and in the wild type conformation when grown at 32C (the permissive temperature). A H1299-neo line (p53 null) grown at both 39C and 32C were used as counter-screens to filter out false positive associated with temperature shifting. The small molecular compounds that selectively target mutant p53-containing cancer cells were selected as candidate probes for further study. A cytotoxicity assay based on the measurement of ATP contents in cells was used in this screen. Concentration-responses of all the compounds in the library collection were determined in qHTS using the cell lines and temperature conditions as above.
NCGC Assay Protocol Summary: Both the H1299-p53A138V and H1299-neo cell lines were provided by Dr.Yi Sun, a PI at the University Michigan. The cells were maintained and cultured at 37C. The resuspended frozen cells were used to plate the cells in the 1536-well assay plates at a density of 600 cells per well in 5 ul medium. The assay plates with the cells were incubated at 37C for 16 to 30 hours before the experiments. The library compounds in DMSO solution were added to the cells in assay plates and incubated 24 hours at 39C (for mutant p53 conformation) or 32C (for normal p53 conformation as control). An ATP_lite assay kit (PerkinElmer) was used to determine the cell viability. Tomaxifen (100uM) was used as the positive control for cell killing. Data were normalized to the controls for basal activity (DMSO only) and 100% killing (100uM tamoxifen). AC50 values were determined from concentration-response data modeled with the standard Hill equation. P53 assay protocol: 1. Reagent; 5 uL H1299-p53A138V or H1299-neo cell cells/well 2. Time; overnight; 37C incubation 3. Compounds; 23 nL; 5.9 nM to 46 uM 4. Controls; 23 nL; Tamoxifen 100 uM 5. Time; 24 hr; 32C incubation 6. Reagent; 3 uL; ATP_Lite reagent 7. Time; 20 min; Room Temperature 8. Detection; Luminescence; Viewlux plate reader Keywords: p53, synthetic lethal, cancer, cell viability, cytotoxicity, H1299 cell line, luminescence, MLSMR, MLSCN, NIH Roadmap, qHTS, NCGC

Compound | activity change, negative = cytotoxicity
CP(=O)(Nc1ccc2c(c1)OCCO2)Oc1ccccc1 (stereo unspecified) | inactive: 9.16%
CCN(CC)CCCOC(=O)C(O)(c1ccccc1)C1CCCCC1 (stereo unspecified) | inactive: -2.22%
COc1ccc(OP(C)(=O)Nc2ccccc2Br)cc1 (stereo unspecified) | inactive: 9.77%
Cc1cccc(C)c1OP(C)(=O)Nc1ccc(SC(F)(F)F)cc1 (stereo unspecified) | inactive: 1.45%
Cc1cc(C)cc(OP(C)(=O)Nc2ccc(SC(F)(F)F)cc2)c1 (stereo unspecified) | inactive: -3.91%
CCOC(=O)c1ccc(NP(C)(=O)Oc2ccc(OC)cc2)cc1 (stereo unspecified) | inactive: -16.3%
